Measurements taken from ChEMBL document CHEMBL1811835, “Intramolecular ion-pair prodrugs of zanamivir and guanidino-oseltamivir” (Bioorg Med Chem, 2011).

Test: Octanol-water distribution coefficient, log D of the compound at pH 7.4 at 100 ug/mL
Assay type: physicochemical

In the case of CCOC(=O)C1=C[C@@H](OC(CC)CC)[C@H](NC(C)=O)[C@@H](N)C1 [OSELTAMIVIR], the logD is reported as 0.36.
